Laboratory results: patent US8022215B2, “Fused pyridone M1 receptor positive allosteric modulators” (Merck Sharp & Dohme Corp., priority 2008, dated 2011)

By UniProt entry, the sequences of proteins in these tests, tags left out. Where a name states a change or a piece, a line headed by the entry shows the natural chain unless it says otherwise.
UniProt P11229: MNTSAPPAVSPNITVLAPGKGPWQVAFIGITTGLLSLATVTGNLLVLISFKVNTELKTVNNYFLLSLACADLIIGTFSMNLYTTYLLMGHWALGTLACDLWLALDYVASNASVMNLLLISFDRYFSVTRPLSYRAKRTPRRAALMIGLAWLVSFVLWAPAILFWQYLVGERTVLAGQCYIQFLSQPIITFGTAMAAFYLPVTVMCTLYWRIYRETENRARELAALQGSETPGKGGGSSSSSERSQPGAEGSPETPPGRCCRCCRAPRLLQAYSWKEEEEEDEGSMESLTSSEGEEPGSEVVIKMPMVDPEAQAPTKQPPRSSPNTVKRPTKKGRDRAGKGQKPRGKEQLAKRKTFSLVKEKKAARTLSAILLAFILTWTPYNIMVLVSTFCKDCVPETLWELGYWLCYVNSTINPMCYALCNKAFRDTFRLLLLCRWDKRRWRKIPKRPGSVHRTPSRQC

Biological target: T1, acetylcholine muscarinic M1 receptor (Homo sapiens, UniProt P11229)
T1 construct: expressed in transfected cells; host or cells: CHOnfat (CHO cells, Geneticin selection)
Assay: muscarinic FLIPR assay: potentiation of acetylcholine (EC20)-stimulated intracellular Ca2+ in CHOnfat/hM1 cells
Assay type: cell-based
Description: The assay studies the effect of one or several concentrations of test compounds on basal or acetylcholine-stimulated Ca^2+ levels using FLIPR.
Compounds are prepared and subjected to a preincubation period of 4 min. Thereafter, a single EC20 concentration of acetylcholine is added to each well (3 nM final). The intracellular Ca^2+ level of each sample is measured and compared to an acetylcholine control to determine any modulatory activity.
Cells: CHOnfat/hM1, hM2, hM3 or hM4 cells are plated 24 hr before the assay at a density of 18,000 cells/well (100 μL) in a 384 well plate. CHOnfat/hM1 and CHOnfat/hM3 Growth Medium: 90% DMEM (Hi Glucose); 10% HI FBS; 2 mM L-glutamine; 0.1 mM NEAA; Pen-Strep; and 1 mg/ml Geneticin, are added. For M2Gqi5CHOnfat and M4Gqi5CHOnfat cells, an additional 600 μg/ml hygromycin is added.
Buffers. […] Dye Loading Buffer: Assay Buffer plus 1% Fetal Bovine Serum and Fluo-4AM/Pluronic Acid Mixture. […] 20% Pluronic Acid Solution stock, with a concentration of 0.04% in Buffer, 0.02% in Assay.
65 μL of 2 mM Fluo-4AM are mixed with 130 μL of 20% Pluronic Acid. […]
After 60 min, the cells are washed three times with 100 μL of buffer, leaving 30 μL of buffer in each well. […] A signal test to check background fluorescence and basal fluorescence signal is performed. […]
The inflection point is calculated from the FLIPR values and is a measure of activity.

Row | Structure (SMILES) | EC50 [nM]
1 | O=C(O)c1cn(Cc2ccc(-c3ccccc3)cc2)c2c(c1=O)C(O)CCC2 (centres unmarked) [Example 17, 1-(Biphenyl-4-ylmethyl)-5-hydroxy-4-oxo-1,4,5,6,7,8-hexahydroquinoline-3-carboxylic acid] | 450
2 | CC(C)Cn1cc(-c2ccc(Cn3cc(C(=O)O)c(=O)c4c3CCCC4O)cc2)cn1 (centres unmarked) [Example 57] | 199
